Results on five molecules are retold here after patent US8901138B2, “Sulfoximine substituted quinazolines for pharmaceutical compositions” (Boehringer Ingelheim International GmbH, priority 2012, dated 2014).

Chains of the proteins cited; added tags and fusions are not shown. Residues count along the entry.
UniProt Q9HBH9, whole entry: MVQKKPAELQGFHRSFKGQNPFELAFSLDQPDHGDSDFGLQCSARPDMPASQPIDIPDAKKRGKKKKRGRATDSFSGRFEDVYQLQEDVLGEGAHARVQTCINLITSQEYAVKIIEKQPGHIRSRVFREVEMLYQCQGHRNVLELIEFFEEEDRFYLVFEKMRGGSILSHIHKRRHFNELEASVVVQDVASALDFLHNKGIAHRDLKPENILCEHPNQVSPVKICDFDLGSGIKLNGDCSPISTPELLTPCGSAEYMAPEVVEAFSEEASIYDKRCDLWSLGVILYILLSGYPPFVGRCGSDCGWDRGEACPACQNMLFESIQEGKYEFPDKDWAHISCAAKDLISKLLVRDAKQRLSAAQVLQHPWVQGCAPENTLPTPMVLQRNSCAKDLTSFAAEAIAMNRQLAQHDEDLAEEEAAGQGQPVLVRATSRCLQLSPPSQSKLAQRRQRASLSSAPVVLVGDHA
UniProt Q9BUB5, 1-424 isoform 2: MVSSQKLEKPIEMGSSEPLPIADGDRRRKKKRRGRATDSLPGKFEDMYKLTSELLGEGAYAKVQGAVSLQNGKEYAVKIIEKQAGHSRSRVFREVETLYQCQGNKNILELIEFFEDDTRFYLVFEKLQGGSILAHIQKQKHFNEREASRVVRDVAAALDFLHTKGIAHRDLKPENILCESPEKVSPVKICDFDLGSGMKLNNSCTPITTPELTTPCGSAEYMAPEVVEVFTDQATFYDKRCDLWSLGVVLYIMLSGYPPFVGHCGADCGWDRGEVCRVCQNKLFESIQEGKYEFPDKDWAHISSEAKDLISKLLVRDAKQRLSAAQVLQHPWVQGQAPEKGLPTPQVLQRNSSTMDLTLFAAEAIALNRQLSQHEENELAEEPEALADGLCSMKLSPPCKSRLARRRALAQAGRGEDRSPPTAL

In one assay the target is MNK2a (Homo sapiens, UniProt Q9HBH9). The experiment in a line: MNK2a in vitro kinase assay (assay 1), ADP-Glo. The settings on record: read-out: MNK2 IC50, preactivated GST-MNK2a, 20 μM ATP. In kind it is biochemical. The method, then: A. MNK2a In Vitro Kinase Assay (Assay 1)
ASSAY SETUP: The inhibition of kinase activity of MNK2a was assessed using preactivated GST-MNK2a. The white, 384-well OptiPlate F plates were purchased from Perkin Elmer. The ADP-Glo Kinase Assay (including ultra pure ATP) was purchased from Promega (V9103). Activated MNK2a was obtained as described in WO2011/104340. The unlabeled eIF4E peptide (NH2-[…]—CONH2) (SEQ ID NO: 1), differing from Seq. ID No. 5 of WO 2011/104340 by the C-terminal —CONH2 group, was purchased from Thermo Fisher Scientific. All other materials were of highest grade commercially available. Compounds are tested in either serial dilutions or single dose concentrations. The compound stock solutions are 10 mM in 100% DMSO The serial compound dilutions are prepared in 100% DMSO followed by 1:27.3 intermediate dilution in assay buffer. The final DMSO concentration in assay will be <3%. In the 384-well plates 3 μl of test compound from the intermediate dilution is mixed with 4 μl of the activated MNK2 enzyme (final concentration of 10 nM) and 4 μl of the peptide (final concentration of 25 μM)/ultra pure ATP (final concentration of 20 μM), all dissolved in assay buffer. This step is followed by an incubation time of 90 min, then 10 μl of ADP Glo reagent are added, followed by 40 min of incubation. Then 20 μl of kinase detection reagent are admixed. The plates are sealed and after an incubation period of 30 min, the luminescence signal is measured in an Envision reader to determine the amount of produced ADP. All incubation steps are performed at room temperature. The assay buffer consists of 20 mM HEPES, 2 mM DTT, 0.01% BSA, 20 mM MgCl2 and 0.1% Pluronic F-127.
Each assay microtiter plate contains wells with vehicle controls instead of compound (1% DMSO in water) as reference for the high signal (100% CTL, high signal), and wells containing a potent MNK2 inhibitor (final 20 μM, 1% DMSO) as reference for low signal (0% CTL, low signal).
The luminescent signal generated is proportional to the ADP concentration produced and is correlated with activated MNK2 activity. The analysis of the data is performed by the calculation of the percentage of ATP consumption of activated MNK2 in the presence of the test compound compared to the consumption of ATP in the presence of activated MNK2 without compound. (RLU(sample)−RLU(low control))*100/(RLU(high value)−RLU(low control)) [RLU=relative luminescence units]
An inhibitor of the MNK2 enzyme will give values between 100% CTL (no inhibition) and 0% CTL (complete inhibition). Values of more than 100% CTL are normally related to compound/sample specific physico-chemical properties (e.g. solubility, light absorbance, fluorescence).
IC50 values based on dose response curves are calculated with the AssayExplorer software.
A general note: ADP-Glo turns the ADP formed in a reaction into a luminescent signal.

The target in the next assay is MNK1a (Homo sapiens, UniProt Q9BUB5). Put plainly: MNK1 in vitro kinase assay (assay 2), Z'-LYTE. Conditions: compound concentration of 1 μM. An excerpt:
B. MNK1 In Vitro Kinase Assay (Assay 2)
MNK1 Data can be obtained from the MNK1 Z′-LYTE® assay. The MNK1 Z′-LYTE® screening protocol and assay conditions are also described on www.invitrogen.com.
The assay is described as follows:
The Z′-LYTE® biochemical assay employs a fluorescence-based, coupled-enzyme format and is based on the differential sensitivity of phosphorylated and non-phosphorylated peptides to proteolytic cleavage. The peptide substrate is labeled with two fluorophores—one at each end—that make up a FRET pair.
In the primary reaction, the kinase transfers the gamma-phosphate of ATP to a single tyrosine, serine or threonine residue in a synthetic FRET-peptide. In the secondary reaction, a site-specific protease recognizes and cleaves non-phosphorylated FRET-peptides. Phosphorylation of FRET-peptides suppresses cleavage by the Development Reagent. Cleavage disrupts FRET between the donor (i.e., coumarin) and acceptor (i.e., fluorescein) fluorophores on the FRET-peptide, whereas uncleaved, phosphorylated FRET-peptides maintain FRET. A ratiometric method, which calculates the ratio (the Emission Ratio) of donor emission to acceptor emission after excitation of the donor fluorophore at 400 nm, is used to quantitate reaction progress, as shown in the equation below. Emission Ratio=Coumarin Emission(445 nm)/Fluorescein Emission(520 nm)
ASSAY SETUP: The inhibition of kinase activity of MNK1a was assessed using pre-activated GST-MNK1a. The 2×MKNK1 (MNK1) mixture is prepared in 50 mM HEPES pH 7.5, 0.01% BRIJ-35, 10 mM MgCl2, 4 mM MnCl2, 1 mM EGTA, 2 mM DTT. […]
9. Read on fluorescence plate reader and analyze the data […]
Correction for Background Fluorescence: FSample−FITCFl Ctl
Emission Ratio (using values corrected for background fluorescence):Coumarin […]
% Phosphorylation (% Phos): 1−((Emission Ratio×F100%)−C100%)/((C0%−C100%)+[Emission Ratio×(F100%−F0%)])*100 % Inhibition: 1−(% PhosSample/% Phos0% Inhibition Ctl)*100 FI=Fluorescence Intensity C100%=Average Coumarin emission signal of the 100% Phos. […]

As a reminder, the IC50 is the concentration needed to halve the response being measured. `COc1cc(N=S2(=O)CCCC2)cc2ncnc(Nc3ccc(F)cc3O[C@@H]3CO[C@@H]4CCO[C@@H]43)c12`: at MNK2a, the IC50 came to 1 nM.
Regarding `Cc1cc(N=S(C)(C)=O)cc2ncnc(Nc3ccc(F)cc3OC3CCC(F)(F)CC3)c12`, the IC50 at MNK2a is 14 nM. Moreover, the “% Inhibition of MNK1” value at MNK1a is reported as 71%.
Consider `CO[C@@H]1CO[C@H]2[C@@H]1OC[C@H]2Oc1cc(F)ccc1Nc1ncnc2cc(N=S3(=O)CCCC3)cc(F)c12`, for which, at MNK2a, the IC50 came to 2 nM.
As for `Cc1cc(N=S2(=O)CCNCC2)cc2ncnc(Nc3ccc(F)cc3O[C@@H]3CCNC3)c12`, at MNK2a, the IC50 turned out to be 6 nM. Also, the “% Inhibition of MNK1” value at MNK1a was found to be 95%.
For `COc1cc(N=S(C)(C)=O)cc2ncnc(Nc3ccc(F)cc3O[C@H]3CC[C@H](O)CC3)c12` the same measures were 4 nM and 97%.
